Each structure is given as a SMILES string.

By UniProt entry, the sequences of proteins in these tests, tags left out.
UniProt P21453, whole entry: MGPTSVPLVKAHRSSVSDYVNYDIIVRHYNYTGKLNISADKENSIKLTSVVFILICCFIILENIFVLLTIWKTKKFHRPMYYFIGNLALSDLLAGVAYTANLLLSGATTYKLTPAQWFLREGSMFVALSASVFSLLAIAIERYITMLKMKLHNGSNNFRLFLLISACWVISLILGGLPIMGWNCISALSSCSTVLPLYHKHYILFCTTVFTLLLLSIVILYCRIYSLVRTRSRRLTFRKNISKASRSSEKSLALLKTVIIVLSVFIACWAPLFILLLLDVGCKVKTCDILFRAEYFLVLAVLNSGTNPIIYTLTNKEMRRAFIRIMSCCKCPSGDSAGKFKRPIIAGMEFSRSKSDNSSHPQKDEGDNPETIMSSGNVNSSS

The target in assay [1] is T1, S1P1 (Homo sapiens (Human), UniProt P21453). The experiment in a line: Receptor [35S] GTPγS Binding Assay, S1P1. The format is biochemical. The following applies: membranes from S1P1/CHO cells; [35S]GTP. As to the method: Receptor [35S] GTPγS Binding Assays
Membranes prepared from S1P1/CHO cells or EDG3-Ga15-bla HEK293T cells were added to the compound plate (40 μl/well, final protein 3 μg/well) with MULTIDROP®. [^35S]GTP (1250 Ci/mmol, Perkin Elmer) was diluted in assay buffer: 20 mM HEPES, pH7.5, 10 mM MgCl2, 150 mM NaCl, 1 mM EGTA, 1 mM DTT, 10 μM GDP, 0.1% fatty acid free BSA, and 10 μg/ml Saponin to 0.4 nM. 40 μl of the [^35S] GTP solution was added to the compound plate with a final concentration of 0.2 nM. The reaction was kept at room temperature for 45 min. At the end of incubation, all the mixtures in the compound plate were transferred to a 384 well FB filter plates via GPCR robot system. The filter plate was washed with water 4 times by using the modified manifold Embla plate washer and dried at 60° C. for 45 min. 30 μl of MicroScint 20 scintillation fluid was added to each well for counting at Packard TOPCOUNT®.
A larger value for the GTPγS S1P3 EC50 value indicated less activity in the GTPγS S1P3 binding assay.
Background: GTPγS resists hydrolysis and so accumulates on activated G proteins.

Assay [2] deals with T1, S1P1. The experiment in a line: S1P1 Binding Assay. Conditions: membranes from CHO cells expressing human S1P1; 33P-S1P ligand; rounded to two digits. The protocol:
Membranes were prepared from CHO cells expressing human S1P1. Cells were dissociated in buffer containing 20 mM HEPES, pH 7.5, 50 mM NaCl, 2 mM EDTA and Protease Inhibitor cocktail (Roche), and disrupted on ice using the Polytron homogenizer. The homogenate was centrifuged at 20,000 rpm (48,000 G) and the supernatant was discarded. The membrane pellets were resuspended in buffer containing 50 mM HEPES, pH 7.5, 100 mM NaCl, 1 mM MgCl2, 2 mM EDTA and stored in aliquots at −80° C. after protein concentration determination. Membranes (2 μg/well) and 0.03 nM final concentration of ^33P-S1P ligand (1 mCi/ml, American Radiolabeled Chemicals) were added to the compound plates. Binding was performed for 45 minutes at room temperature, terminated by collecting the membranes onto GF/B filter plates, and radioactivity was measured by TOPCOUNT®. The competition data of the test compounds over a range of concentrations was plotted as percentage inhibition of radioligand specific binding. The IC50 is defined as the concentration of competing ligand needed to reduce specific binding by 50%.
Table A below lists S1P1 Binding IC50 values from the following examples of this invention measured in the S1P1 binding assay described hereinabove. The results in Table A were rounded to two digits.

The term EC50 denotes the concentration giving half of the maximal effect. A low value points to a more potent agent. A word on the IC50: it is the concentration that gives 50% inhibition. A high value points to weaker potency. For `O=C(NC1CCC1)C(O)c1ccc(-c2noc(-c3onc(-c4ccccc4)c3C(F)(F)F)n2)cc1` (racemic) [Example 116, (R/S)-N-Cyclobutyl-2-hydroxy-2-(4-(5-(3-phenyl-4-(trifluoromethyl)isoxazol-5-yl)-1,2,4-oxadiazol-3-yl)phenyl)acetamide], at S1P1 [1], a half-maximal response (EC50) required 162 nM. Moreover, the IC50 at S1P1 [2] worked out at 43 nM.

Source of the values: patent US8835470B2, “Mandelamide heterocyclic compounds” (Bristol-Myers Squibb Company, priority 2010, dated 2014).
